Patent US9957264B2 (Merck Sharp & Dohme Corp., priority 2013, dated 2018)

Chains of the proteins cited; added tags and fusions are not shown. Residues count along the entry.
UniProt P23458, 875-1153 limits assumed: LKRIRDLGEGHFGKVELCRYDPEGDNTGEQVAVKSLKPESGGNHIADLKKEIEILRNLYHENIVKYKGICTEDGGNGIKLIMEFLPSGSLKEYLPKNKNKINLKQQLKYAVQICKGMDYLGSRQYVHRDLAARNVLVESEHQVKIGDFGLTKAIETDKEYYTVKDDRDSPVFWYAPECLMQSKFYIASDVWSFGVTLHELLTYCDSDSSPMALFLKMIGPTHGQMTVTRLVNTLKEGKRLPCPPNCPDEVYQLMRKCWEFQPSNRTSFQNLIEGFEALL
UniProt O60674, 849-1124 limits assumed: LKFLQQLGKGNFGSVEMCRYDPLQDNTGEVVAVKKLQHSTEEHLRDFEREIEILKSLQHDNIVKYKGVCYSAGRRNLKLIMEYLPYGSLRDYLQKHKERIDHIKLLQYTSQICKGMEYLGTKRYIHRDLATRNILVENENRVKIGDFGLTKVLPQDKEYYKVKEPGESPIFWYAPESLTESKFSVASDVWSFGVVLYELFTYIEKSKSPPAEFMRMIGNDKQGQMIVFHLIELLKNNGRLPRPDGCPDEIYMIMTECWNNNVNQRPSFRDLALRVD

How the values were obtained:
[1] = target: JAK1 (recombinant purified GST-tagged catalytic domain) (Homo sapiens (Human), UniProt P23458); assay: Jak Biochemical HTRF Assay (JAK1); details: read-out: JAK1 IC50, [ATP] 31.8 μM
Description: Jak Biochemical HTRF Assay Protocol
The ability of compounds to inhibit the activity of JAK1, JAK2, JAK3, and Tyk2 was measured using a recombinant purified GST-tagged catalytic domain for each enzyme (Invitrogen JAK1 #M4290, JAK2 #M4290, JAK3 #M4290, Tyk2 #M4290) in an HTRF format biochemical assay. The reactions employed a common peptide substrate, LCB-[…]-NH2 (in-house). The basic assay protocol is as follows: First, 250 nL of diluted compounds in DMSO were dispensed into the wells of a dry 384-well Black plate (Greiner #781076) using a Labcyte Echo 555 acoustic dispenser. Subsequent reagent additions employed an Agilent Bravo. Next, 18 μL of 1.11× enzyme and 1.11× substrate in 1× assay buffer (Invitrogen kinase buffer #PV3189, 2 mM DTT, 0.05% BSA) were added to the wells and shaken and then preincubated for 30 minutes at room temperature to allow compound binding to equilibrate. After equilibration, 2 μL of 10×ATP in 1× assay buffer was added to initiate the kinase reaction and the plates were shaken and then incubated at room temperature for 120 minutes. At the end of the incubation, 20 μL of 2× stop buffer (streptavidin-Dylight 650 (Thermo #84547B/100 mL), Eu-tagged pY20 antibody (Perkin Elmer #AD0067), EDTA, HEPES, and Triton) was added to quench the reaction. Plates were shaken and centrifuged and then incubated 60 minutes at room temperature and then read on a Perkin Elmer Envision (λex=337 nm, λem=665 and 615 nm, TRF delay time=20 μs). HTRF signal=10,000*665 nm reading/615 nm reading. After normalization to untreated controls, the percent inhibition of the HTRF signal at each compound concentration was calculated. The plot of percent inhibition versus the log of compound concentration was fit with a 4-parameter dose response equation to calculate IC50 values.
Final reaction conditions were:
Examples of the instant invention were evaluated in JAK1 and JAK2 in vitro binding assays as described above. The following table tabulates the JAK1 IC50 values and JAK2 IC50 values disclosed for the instant invention.

[2] = target: JAK2 (recombinant purified GST-tagged catalytic domain) (Homo sapiens (Human), UniProt O60674); assay: Jak Biochemical HTRF Assay (JAK2); details: read-out: JAK2 IC50, [ATP] 8.5 μM

Q: Which IC50 [1] does the source give for `CN(C)S(=O)(=O)c1ccc(Nc2nn(C3(CC#N)CCN(S(=O)(=O)CC(F)(F)F)CC3)c3cc[nH]c(=O)c23)cc1` here?
A: The IC50 was 0.09 nM.

Q: And the IC50 [2]?
A: Its IC50 is 0.18 nM.

Q: Which IC50 [1] does the source give for `Cc1cc(Nc2nn([C@]3(CC#N)CCCOC3)c3cc[nH]c(=O)c23)ccc1C(=O)N1CCC(F)(F)CC1` here?
A: The IC50 was 0.3 nM.

Q: And the IC50 [2]?
A: Its IC50 is 0.71 nM.

Q: How did the IC50 [1] turn out when `COC(=O)N1CCC(CC#N)(n2nc(Nc3ccc(S(=O)(=O)N(C)C)cc3)c3c(=O)[nH]ccc32)CC1` was run?
A: The IC50 was 0.13 nM.

Q: And the IC50 [2]?
A: Its IC50 is 0.26 nM.
